Laboratory results taken from ChEMBL document CHEMBL1126196, “Improvements in the minimum binding sequence of C5a: examination of His-67” (J Med Chem, 1992).

Molecular target: T1, C5a anaphylatoxin chemotactic receptor 1 (Homo sapiens, UniProt P21730)
T1 sequence (P21730 whole entry): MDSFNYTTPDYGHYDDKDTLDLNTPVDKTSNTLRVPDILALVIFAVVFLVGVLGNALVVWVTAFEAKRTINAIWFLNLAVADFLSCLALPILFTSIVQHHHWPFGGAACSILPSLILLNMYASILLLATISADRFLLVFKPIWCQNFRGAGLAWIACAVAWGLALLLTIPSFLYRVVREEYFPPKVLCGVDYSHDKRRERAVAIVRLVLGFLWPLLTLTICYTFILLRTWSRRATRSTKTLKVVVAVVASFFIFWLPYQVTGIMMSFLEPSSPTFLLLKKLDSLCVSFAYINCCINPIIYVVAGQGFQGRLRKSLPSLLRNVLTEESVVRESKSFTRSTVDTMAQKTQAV
Test: Inhibitory activity against [125I]-rC5a binding to C5a anaphylatoxin chemotactic receptor in human polymorphonuclear leukocyte (PMNL) membranes
Procedure, shortened: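 Competition binding on human PMNL membrane fragments, peptides displacing ¹²⁵I-labelled recombinant C5a. Inhibition binding data converted to apparent dissociation constant (Ki) by the Cheng–Prusoff method.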

SMILES | Ki
CC[C@H](C)[C@H](NC(=O)[C@H](CC(N)=O)NC(=O)[C@H](C)N)C(=O)N[C@@H](CO)C(=O)N[C@@H](Cc1ccccc1)C(=O)N[C@@H](CCCCN)C(=O)N[C@@H](CC(=O)O)C(=O)N[C@@H](CCSC)C(=O)N[C@@H](CCC(N)=O)C(=O)N[C@@H](CC(C)C)C(=O)NCC(=O)N[C@@H](CCCN=C(N)N)C(=O)O | 220 nM
CC[C@H](C)[C@H](N)C(=O)N[C@@H](CO)C(=O)N[C@@H](Cc1ccccc1)C(=O)N[C@@H](CCCCN)C(=O)N[C@@H](CC(=O)O)C(=O)N[C@@H](CCSC)C(=O)N[C@@H](CCC(N)=O)C(=O)N[C@@H](CC(C)C)C(=O)NCC(=O)N[C@@H](CCCN=C(N)N)C(=O)O | 390 nM
